Patent US20040176294A1, “Use of thyroid-stimulating hormone to induce lipolysis” (priority 2003, published 2004)

Tested on: male ob/ob mice
Assay: Chronic treatment of ob/ob mice: serum lipid analysis
Format: in vivo
Settings: 5 weeks of treatment, fasted 4 hours
Method: 11-week old male ob/ob mice were individually caged and given a standard lab chow (4% fat) with free access to food and water. Animals were assigned to a treatment group (n=7-8, average weight 54.3+/−0.3 g per group), kept on a 12 hour dark cycle (6 PM to 6 AM), and injected each day between 7 and 9 AM. Chow consumed by each animal was weighed twice weekly. All animals received treatments IP with an injection volume of 0.1 ml. TSH was administered at 267 μg/kg, and the H3-AR agonist CL 316,243 at 0.75 mg/kg. Thyroid hormone (T4) was administered at 1.5 μg/mouse for 4 days, reduced to 1 [μg/mouse for 10 days, and returned to 1.5 μg/mouse for the next 14 days. The vehicle controls received sterile saline. TSH was obtained from Genzyme Pharmaceuticals, (Thyrogen®, catalog number 36778; Genzyme Corporation, Cambridge, Mass.), CL316,243 from Sigma Biochemicals, and T4 obtained from Calbiochem, Inc. All blood draws were performed by retro-orbital puncture under isoflurane anesthesia.
The study set used for the IPGTT was treated an additional 7 days before sacrifice (total treatment time of 5 weeks). Subject animals were fasted for 4 hours at the beginning of the light cycle, and serum was obtained at sacrifice under isoflurane anesthesia. Triglyceride and total cholesterol levels were determined with the Cholestech LDX blood analyzer (Cholestech Corporation, Hayward Calif.). […]

With “TSH: ~30 kDa glycoprotein of two non-covalently linked alpha and beta subunits; Thyrogen, Genzyme Corporation” the serum triglyceride was 80 ± 10 mg/dL and the total cholesterol was 124 ± 16 mg/dL.
